This note sets out measurements from PMC8102310 (Cancer discovery, 2021).

Sequences of proteins named here, by UniProt entry; tags and fusion partners are left off. Residues count along the entry.
UniProt Q09472, 1049-1156 limits assumed: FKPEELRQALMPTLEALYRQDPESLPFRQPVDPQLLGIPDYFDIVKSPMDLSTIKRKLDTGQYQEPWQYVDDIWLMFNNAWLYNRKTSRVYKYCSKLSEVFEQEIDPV
UniProt Q09472, whole entry: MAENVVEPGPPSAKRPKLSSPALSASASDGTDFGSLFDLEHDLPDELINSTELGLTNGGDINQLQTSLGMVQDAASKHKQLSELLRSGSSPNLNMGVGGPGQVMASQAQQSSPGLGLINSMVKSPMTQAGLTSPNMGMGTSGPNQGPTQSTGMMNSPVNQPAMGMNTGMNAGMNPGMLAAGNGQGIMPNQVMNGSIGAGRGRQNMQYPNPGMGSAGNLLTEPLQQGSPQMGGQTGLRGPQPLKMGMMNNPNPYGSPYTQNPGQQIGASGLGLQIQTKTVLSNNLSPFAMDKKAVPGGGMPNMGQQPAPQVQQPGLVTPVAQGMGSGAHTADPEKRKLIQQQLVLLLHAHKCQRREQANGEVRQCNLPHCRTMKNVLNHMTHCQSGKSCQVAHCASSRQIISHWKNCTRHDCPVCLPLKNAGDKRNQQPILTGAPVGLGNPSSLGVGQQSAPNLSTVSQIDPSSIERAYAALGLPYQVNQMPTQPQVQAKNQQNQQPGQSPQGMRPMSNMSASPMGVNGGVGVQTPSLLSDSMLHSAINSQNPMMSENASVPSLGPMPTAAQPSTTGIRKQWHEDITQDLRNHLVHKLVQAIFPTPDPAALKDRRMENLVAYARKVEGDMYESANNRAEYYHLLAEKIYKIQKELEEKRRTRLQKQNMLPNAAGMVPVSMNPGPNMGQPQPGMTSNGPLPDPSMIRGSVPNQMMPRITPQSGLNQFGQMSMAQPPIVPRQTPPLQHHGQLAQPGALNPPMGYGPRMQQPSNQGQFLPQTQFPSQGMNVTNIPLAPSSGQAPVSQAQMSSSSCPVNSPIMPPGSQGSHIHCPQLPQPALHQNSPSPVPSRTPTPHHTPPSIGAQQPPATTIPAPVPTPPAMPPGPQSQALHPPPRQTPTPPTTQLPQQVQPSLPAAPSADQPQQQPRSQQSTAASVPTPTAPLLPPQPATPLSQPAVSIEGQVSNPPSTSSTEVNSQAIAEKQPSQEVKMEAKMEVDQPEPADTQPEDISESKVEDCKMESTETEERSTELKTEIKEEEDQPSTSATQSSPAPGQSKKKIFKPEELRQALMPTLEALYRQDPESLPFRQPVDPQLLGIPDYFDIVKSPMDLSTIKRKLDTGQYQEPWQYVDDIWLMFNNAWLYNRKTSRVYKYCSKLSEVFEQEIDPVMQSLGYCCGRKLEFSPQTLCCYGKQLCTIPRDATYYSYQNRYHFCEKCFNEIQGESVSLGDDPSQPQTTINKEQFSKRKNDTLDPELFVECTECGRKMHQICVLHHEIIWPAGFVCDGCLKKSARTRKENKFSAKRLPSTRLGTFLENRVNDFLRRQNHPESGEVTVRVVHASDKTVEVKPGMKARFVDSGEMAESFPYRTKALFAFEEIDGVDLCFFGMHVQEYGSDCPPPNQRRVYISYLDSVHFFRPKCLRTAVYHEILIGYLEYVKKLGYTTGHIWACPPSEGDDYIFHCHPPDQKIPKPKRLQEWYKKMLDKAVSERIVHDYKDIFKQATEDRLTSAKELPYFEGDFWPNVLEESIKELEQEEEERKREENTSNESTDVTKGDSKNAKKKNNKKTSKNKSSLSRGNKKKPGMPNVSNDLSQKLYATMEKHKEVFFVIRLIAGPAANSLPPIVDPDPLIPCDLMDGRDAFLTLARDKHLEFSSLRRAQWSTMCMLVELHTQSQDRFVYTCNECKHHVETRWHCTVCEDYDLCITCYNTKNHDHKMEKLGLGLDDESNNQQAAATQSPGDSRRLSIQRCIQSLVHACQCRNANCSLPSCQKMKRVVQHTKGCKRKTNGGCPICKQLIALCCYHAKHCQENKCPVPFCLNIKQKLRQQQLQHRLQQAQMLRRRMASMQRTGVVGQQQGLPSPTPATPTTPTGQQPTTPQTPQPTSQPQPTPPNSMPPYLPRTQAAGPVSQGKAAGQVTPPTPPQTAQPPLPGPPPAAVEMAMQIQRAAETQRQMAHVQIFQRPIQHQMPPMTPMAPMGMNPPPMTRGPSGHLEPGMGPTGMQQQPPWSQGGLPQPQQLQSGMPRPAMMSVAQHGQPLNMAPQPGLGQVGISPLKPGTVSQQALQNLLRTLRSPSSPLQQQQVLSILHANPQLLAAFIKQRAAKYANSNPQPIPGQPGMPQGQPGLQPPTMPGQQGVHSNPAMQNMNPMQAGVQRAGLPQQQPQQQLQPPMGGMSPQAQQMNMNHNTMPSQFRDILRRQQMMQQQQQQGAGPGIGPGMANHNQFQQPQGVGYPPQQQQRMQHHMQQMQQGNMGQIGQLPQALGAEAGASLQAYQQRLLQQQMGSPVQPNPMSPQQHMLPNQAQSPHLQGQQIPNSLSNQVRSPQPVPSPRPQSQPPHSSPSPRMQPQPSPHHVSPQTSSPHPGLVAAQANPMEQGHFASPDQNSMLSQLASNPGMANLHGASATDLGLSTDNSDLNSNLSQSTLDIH
UniProt Q92793, 1085-1192 limits assumed: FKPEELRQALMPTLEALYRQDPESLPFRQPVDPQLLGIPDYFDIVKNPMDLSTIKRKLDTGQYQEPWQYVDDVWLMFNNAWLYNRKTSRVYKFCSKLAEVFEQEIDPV

For assay [1], the target named is T1, p300 bromodomain (Homo sapiens, UniProt Q09472). The following applies: SPR Kd ratio.
For the next assay, the target named is CBP bromodomain (Homo sapiens, UniProt Q92793). The note with it: SPR Kd ratio.
Assay [2] addresses T1, p300 bromodomain. Briefly: cell-based.

As usually defined, the IC50 is the midpoint of a concentration-inhibition curve. For the compound `CO[C@H]1CC[C@H](n2c([C@@H]3CCCC(=O)N3c3ccc(F)c(F)c3)nc3cc(-c4c(C)noc4C)ccc32)CC1` [CCS1477], the “selectivity for p300 compared with BRD4” value at p300 bromodomain [1] is listed as 170 fold. Besides, the “selectivity for CBP compared with BRD4” value at CBP bromodomain came out at 130 fold. On p300 bromodomain [2], the concentration for half-maximal inhibition (IC50) was 19 nM.
